One experiment deals with NDM-1 (Klebsiella pneumoniae, UniProt C7C422). Format: biochemical.
For the next experiment, the target named is T1, VIM-1 (Pseudomonas aeruginosa, UniProt A0A0F7KYQ8).
T1 construct: made in house; host or cells: strain ECM6711 carrying plasmid pUCP24-VIM-1 (probably E. coli, inferred); unpurified culture supernatant
Format: biochemical.

The chains behind the UniProt entries cited, without tags or fusion partners. Residues count along the entry.
UniProt C7C422, 29-270, looked up, species assumed: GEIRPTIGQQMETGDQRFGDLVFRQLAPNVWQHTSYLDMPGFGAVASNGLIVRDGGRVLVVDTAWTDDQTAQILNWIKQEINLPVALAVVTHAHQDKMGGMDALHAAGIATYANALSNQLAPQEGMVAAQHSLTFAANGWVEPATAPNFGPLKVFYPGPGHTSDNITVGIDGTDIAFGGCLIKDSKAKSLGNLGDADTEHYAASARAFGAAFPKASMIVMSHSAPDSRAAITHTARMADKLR

pIC50: −log10 of the molar value. Read-outs that look alike come from different tables or passages of the source.

Consider EDTA, for which the Ki at NDM-1 (substrate biapenem 100 uM, read-out: Ki, μM Biapenem) was in the range of 0.01 to 0.1 µM; at NDM-1 (substrate imipenem 100 uM, read-out: Ki, μM Imipenem), 0.01 to 0.1 µM; on NDM-1 (substrate meropenem, read-out: Ki, μM Meropenem) it was 0.01 to 0.1 µM; at NDM-1 (substrate tebipenem 100 uM, read-out: Ki, μM Tebipenem), 0.01 to 0.1 µM. The same substance showed a pIC50 on VIM-1 of over 6.00.

Source of the values: patent publication US9132140B2, “Boronic acid derivatives and therapeutic uses thereof” (Rempex Pharmaceuticals, Inc., priority 2013, dated 2015).
